# Test system: mice
# Test: Acute toxicity in mice, LD50 (method of Reed and Muench)
# Assay type: in vivo
# Protocol: 1. Acute toxicity in mice
# Albino mice of 18 to 25 g. The LD50 was determined in accordance with the method of Reed and Muench.
# The acute toxicity in mice was determined in accordance with the method of REED and MUENCH, in a modified form (Reed L. J. and Muench H., Am. J. Hyg., 27, 493, 1938). The effect on the average bleeding time was determined by the Roskam technique modified by Laporte (Laporte J., Chemotherapia, 3, 62, 1961).
substance,measurement,setting,value
Diethylamine (tertiary butyl)-p-dihydroxybenzenesulphonate,LD50,"i.v., mice (summary table)",475 mg/kg
same,LD50,"intravenous, female mice",475.3 mg/kg
same,LD50,"intravenous, male mice",475 mg/kg
same,LD50,"oral, female mice","3,732 mg/kg"
same,LD50,"oral, male mice","2,552 mg/kg"
